Ab-95 light chain CDR variants: yeast mating affinities

Reference: Engelhart et al. 2022, doi:10.1038/s41597-022-01779-4. File: FLAb, binding data.

All variants were tested on one target, the spike HR2 peptide PDVDLGDISGINAS (SARS-CoV-2).

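Phage display of a naive human antibody library on the peptide gave the parent. Variants in AAYL52 differ from the parent at up to three CDR positions; double and triple changes were sampled at random. The assay is AlphaSeq: two haploid yeast populations carry antibody and antigen on their surface. After mating in shaken culture at 30 °C for 16 h, diploids were selected and their barcode pairs sequenced. A regression on co-assayed BCL2-family reference pairs converts the normalised counts of each replicate to an apparent Kd. Each pool was mated in three replicate cultures.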

Ab-95 is the parent antibody, in scFv form: VH, then a (GGGGS)3 linker, then VL. The heavy chain is unchanged in all variants.
VH: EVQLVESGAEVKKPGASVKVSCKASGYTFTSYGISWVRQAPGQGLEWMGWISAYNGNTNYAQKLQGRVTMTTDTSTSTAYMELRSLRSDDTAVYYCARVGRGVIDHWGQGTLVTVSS
VL: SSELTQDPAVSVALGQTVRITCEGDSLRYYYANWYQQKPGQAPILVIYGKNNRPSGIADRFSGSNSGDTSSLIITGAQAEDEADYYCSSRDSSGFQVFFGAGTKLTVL

Positions count from residue 1 of the parent VL; Y31A puts A in place of Y.
Every variant below is changed at G94 of the VL (sequential numbering).
The Kd shown is the geometric mean over detected replicates; a lower Kd is a better binder.
Where no diploid with the target was found in any replicate, the entry reads "no signal": below detection, most likely a poor binder, though not proof of it.
Empty control strains, which show no peptide, gave a signal in 28% of pairings with library AAYL52; the median was 8.2 µM and 95% of these signals were weaker than 800 nM. No background was subtracted. For each scFv, signals with the empty controls are counted beside the result.

Variant Y31A/S89W/G94I gave 49 nM (3 of 3 replicates; controls 5 of 9). Variant Y29I/P54L/G94T showed 5.9 µM (2 of 3 replicates; controls 2 of 9). For N33C/G94Q/V97N, the assay gave no signal (0 of 3 replicates; controls 0 of 9). With G94E/V97H the result was 2.7 µM (3 of 3 replicates; controls 1 of 9). Variant G94Q/F95T/F98K gave 100 nM (3 of 3 replicates; controls 1 of 9). With E23G/L27A/G94C the result was no signal (0 of 3 replicates; controls 1 of 9). For D25T/Y29K/G94P, the assay gave 1.5 µM (3 of 3 replicates; controls 4 of 9). For A32S/S93L/G94A, the assay gave 720 nM (3 of 3 replicates; controls 1 of 9). Variant L27C/R90F/G94P showed 17 µM (1 of 3 replicates; controls 4 of 9).

Variant S93D/G94P showed 170 nM (3 of 3 replicates; controls 2 of 9). For P54D/G94D/F95G, the assay gave 1.8 µM (3 of 3 replicates; controls 5 of 9). Variant S55G/G94F/F98L showed 1.5 µM (1 of 3 replicates; controls 2 of 9). For D25C/P54Y/G94S, the assay gave 880 µM (1 of 3 replicates; controls 2 of 9). With R90P/G94A/F98T the result was no signal (0 of 3 replicates; controls 0 of 9). Variant S88E/R90L/G94N gave 270 nM (3 of 3 replicates; controls 1 of 9). For L27S/G94S/F98Y, the assay gave 4.7 µM (3 of 3 replicates; controls 2 of 9). Variant R90H/G94L/Q96R gave 270 nM (3 of 3 replicates; controls 2 of 9). Variant R53M/S55T/G94Q gave no signal (0 of 3 replicates; controls 1 of 9).

Variant S26L/P54L/G94P showed 310 µM (1 of 3 replicates; controls 0 of 9). Variant E23W/K50P/G94S gave 3.9 µM (3 of 3 replicates; controls 2 of 9). With N51S/S89I/G94K the result was 18 µM (3 of 3 replicates; controls 4 of 9). With L27V/R53S/G94R the result was no signal (0 of 3 replicates; controls 1 of 9). With S55H/S92P/G94E the result was 13 µM (1 of 3 replicates; controls 3 of 9). For L27R/S92V/G94R, the assay gave no signal (0 of 3 replicates; controls 3 of 9). With G49T/R53K/G94L the result was 15 µM (3 of 3 replicates; controls 2 of 9). Variant L27E/G94A/Q96S gave 13 µM (2 of 3 replicates; controls 2 of 9). Variant K50L/S55D/G94E showed 130 nM (3 of 3 replicates; controls 4 of 9).

With S88C/R90F/G94K the result was 98 nM (3 of 3 replicates; controls 0 of 9). Variant Y30R/K50P/G94E showed 190 nM (3 of 3 replicates; controls 3 of 9). For R28K/G94M/F98P, the assay gave 8.7 µM (3 of 3 replicates; controls 2 of 9). With R28F/G94Q/F95N the result was 6.3 µM (2 of 3 replicates; controls 0 of 9). For S92I/G94C/V97L, the assay gave no signal (0 of 3 replicates; controls 2 of 9). For R90W/G94D, the assay gave no signal (0 of 3 replicates; controls 0 of 9).

Picked from the list: the 5 lowest averages where every replicate gave a value.

{"changes": "Y31A/S89W/G94I", "Kd": "49 nM", "replicates with signal": "3 of 3", "control signals": "5 of 9"}
{"changes": "S88C/R90F/G94K", "Kd": "98 nM", "replicates with signal": "3 of 3", "control signals": "0 of 9"}
{"changes": "G94Q/F95T/F98K", "Kd": "100 nM", "replicates with signal": "3 of 3", "control signals": "1 of 9"}
{"changes": "K50L/S55D/G94E", "Kd": "130 nM", "replicates with signal": "3 of 3", "control signals": "4 of 9"}
{"changes": "S93D/G94P", "Kd": "170 nM", "replicates with signal": "3 of 3", "control signals": "2 of 9"}

In this assay the parent's reference entry averaged 200 nM; its copy inside this library read 180 nM.